Source: patent US7754866B2 (Arena Pharmaceuticals, Inc., priority 1997, dated 2010)

Chains of the proteins cited; added tags and fusions are not shown. Residues count along the entry.
UniProt P28223, whole entry T25N/H452Y: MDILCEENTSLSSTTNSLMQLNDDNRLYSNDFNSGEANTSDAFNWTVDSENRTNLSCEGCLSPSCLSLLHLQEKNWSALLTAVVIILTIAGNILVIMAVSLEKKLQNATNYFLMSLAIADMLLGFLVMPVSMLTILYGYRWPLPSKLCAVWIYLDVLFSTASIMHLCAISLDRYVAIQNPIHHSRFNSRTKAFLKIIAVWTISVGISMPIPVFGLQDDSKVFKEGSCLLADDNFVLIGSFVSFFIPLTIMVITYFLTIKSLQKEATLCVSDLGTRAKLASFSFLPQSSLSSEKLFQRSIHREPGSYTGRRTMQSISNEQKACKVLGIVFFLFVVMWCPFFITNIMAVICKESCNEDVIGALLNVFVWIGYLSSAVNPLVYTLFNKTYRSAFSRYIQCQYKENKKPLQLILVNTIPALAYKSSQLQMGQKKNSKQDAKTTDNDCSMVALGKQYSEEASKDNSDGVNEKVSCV
UniProt P28223, whole entry T25N, looked up: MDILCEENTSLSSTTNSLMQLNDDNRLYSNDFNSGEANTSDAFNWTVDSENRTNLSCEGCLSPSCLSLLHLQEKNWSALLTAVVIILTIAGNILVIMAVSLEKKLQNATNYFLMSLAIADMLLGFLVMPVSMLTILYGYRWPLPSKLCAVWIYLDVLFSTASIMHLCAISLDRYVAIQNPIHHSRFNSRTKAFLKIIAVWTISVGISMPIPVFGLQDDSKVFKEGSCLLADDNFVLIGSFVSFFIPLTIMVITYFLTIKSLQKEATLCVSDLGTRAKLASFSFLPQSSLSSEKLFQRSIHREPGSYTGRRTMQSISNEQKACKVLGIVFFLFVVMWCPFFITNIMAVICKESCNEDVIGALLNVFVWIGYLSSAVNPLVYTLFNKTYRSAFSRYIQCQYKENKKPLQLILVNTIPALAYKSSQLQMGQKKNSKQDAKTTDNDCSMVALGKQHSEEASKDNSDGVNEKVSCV
UniProt P28335, 33-458 S310K: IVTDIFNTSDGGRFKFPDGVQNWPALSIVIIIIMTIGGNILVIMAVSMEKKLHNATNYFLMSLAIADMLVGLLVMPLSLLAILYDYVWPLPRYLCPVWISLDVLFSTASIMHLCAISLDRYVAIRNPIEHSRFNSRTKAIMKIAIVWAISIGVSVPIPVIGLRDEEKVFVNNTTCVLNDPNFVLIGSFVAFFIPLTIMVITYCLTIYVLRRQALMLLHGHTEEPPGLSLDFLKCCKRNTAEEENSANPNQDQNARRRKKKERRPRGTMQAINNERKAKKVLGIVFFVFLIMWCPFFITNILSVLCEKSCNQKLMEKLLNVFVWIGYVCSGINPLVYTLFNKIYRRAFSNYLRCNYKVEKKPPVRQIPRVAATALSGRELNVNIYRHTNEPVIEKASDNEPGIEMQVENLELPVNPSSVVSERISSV

Key:
[1] = target: T1, wild type human 5HT2A receptor (Homo sapiens, UniProt P28223); test: Competitive binding assay, [3H]LSD, WT 5HT2A; conditions: 1 nM [3H]LSD, COS7 membranes
T1 construct: expressed in transfected cells; host or cells: COS-7 cells, pCMV vector
Description: Membranes were prepared from transfected COS-7 cells (see Example 2) by homogenization in 20 mM HEPES and 10 mM EDTA, pH 7.4 and centrifuged at 49,000×g for 15 min. The pellet was resuspended in 20 mM HEPES and 0.1 mM EDTA, pH 7.4, homogenized for 10 sec. using a Polytron homogenizer (Brinkman) at 5000 rpm and centrifuged at 49,000×g for 15 min. The final pellet was resuspended in 20 mM HEPES and 10 mM MgCl2, pH 7.4, homogenized for 10 sec. using polytron homogenizer (Brinkman) at 5000 rpm.
Assays were performed in triplicate 200 μl volumes in 96 well plates. […] LSD assays were incubated for 1 Hr at 37° C., while mesulergine assays were incubated for 1 Hr at room temperature. Assays were terminated by rapid filtration onto Wallac Filtermat Type B with ice cold binding buffer using Skatron cell harvester. The radioactivity was determined in a Wallac 1205 BetaPlate counter.
The final assay ingredients comprised assay buffer (20 mM HEPES and 10 mM MgCl2), 1 nM [^3H]LSD, and 50 μg of the above-defined membranes (COS7 with AP-1). […] Incubations were performed for 1 Hour at 37° C. Receptor bound radioligand was resolved from free radioligand by rapid filtration of the assay mixture over a Wallac Filtermat™ Type B filter, followed by washing with ice-cold assay buffer using a Skatron™ cell harvester. Radioactivity was counted using a Wallac 1205 BetaPlate™ counter. Each assay plate contained five negative control wells (membranes expressing receptor and no candidate compound addition) and three positive control wells (containing 100 μM mianserin). For one concentration tests, candidate compounds were diluted into assay buffer and screened at a final concentration of 10 μM in triplicate. For IC50 determinations, candidate compounds were diluted in assay buffer and eight different concentrations were evaluated in triplicate.
WT 5HT2A LSD IC50 nM: The values in this column reflect a competitive binding assay using LSD. This column corresponds to the column appearing in the tables above which is labeled: Competitive Binding, WT 5HT2A, ([^3H]LSD), IC50 Value (μM).

[2] = target: T2, human mutated 5HT2A receptor, AP-3 (Homo sapiens, UniProt P28223, T25N); test: Inositol phosphate accumulation assay, AP-3; type: cell-based;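 also: transfected 293 cells prelabeled with 3H-inositol, exposed to compound 120 min at 37 °C with LiCl and pargyline, inositol trisphosphates isolated by anion exchange and counted by scintillation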
T2 construct: Inositol Phosphate Accumulation AP-3 IC50 Value (nM); other: several concentrations; IP3 % of Control; other: one concentration of 10 μM, triplicate; control without test compound
Description: Candidate compound identified in the assays of Examples 9a-9c were then evaluated for inositol phosphate accumulation, following the protocol of Example 5 (COS7 cells expressing human mutated 5HT2A receptor, AP-3), modified as follows: tube A was prepared by mixing 16 μg DNA (e.g., pCMV vector; pCMV vector AP-1 cDNA, etc.) in 1.0 ml serum free DMEM (Irvine Scientific, Irvine, Calif.); tube B was prepared by mixing 60 μl lipofectamine (Gibco BRL) in 1.0 ml serum free DMEM. Tubes A and B were then admixed by inversions (several times), followed by incubation at room temperature for 30 min. The admixture is referred to as the “transfection mixture”. Plated 293 cells were washed with 10 ml Serum Free DMEM, followed by addition of 11 ml Serum Free DMEM. […] On day 3, cells were trypsinized and counted, followed by plating of 1×10^6 cells/well (12-well plates). […]
IP3% Control: The values in this column reflect an IP Accumulation Assay where the test compounds were evaluated at one concentration of 10 μM. […] The percent control value was calculated based on the control in which no test compound was added.
IP3 AP-3 IC50 mM: The values in this column reflect an IP accumulation assay in which the test compound was evaluated at several different concentrations whereby an IC50 could be determined. […]

[3] = target: constitutively active mutant human 5HT2C receptor AP-1 (Homo sapiens, UniProt P28335, S310K); test: [35S]GTPγS binding assay with membranes of COS7 cells expressing AP-1

Cn1cc(Br)c(-c2cccc(NC(=O)c3cccs3)c2)n1 [Compound 116102, N-[3-(4-bromo-1-methylpyrazol-3-yl)phenyl][2-thienyl]carboxamide] was tested, and the IC50 [1] was 170 nM.
Cn1cc(Br)c(-c2cccc(NC(=O)NCc3ccc(OC(F)(F)F)cc3)c2)n1 [Compound 116115] gave an IC50 [2] of 17.1 nM and an IC50 [1] of 450 nM.
Work on Cn1cc(Br)c(-c2cccc(NC(=O)c3ccc(Cl)cc3)c2)n1 [Compound 116120, N-[3-(4-bromo-1-methylpyrazol-3-yl)phenyl][4-chlorophenyl]carboxamide] yielded an IC50 [2] of 31.5 nM and an IC50 [1] of 210 nM.
CN1C[C@@H](NS(=O)(=O)N(C)C)C[C@@H]2c3cccc4c3c(cn4C)C[C@H]21 [Mesulergine] showed an IC50 [3] of 21.2 nM.
